## Apparent affinities of Ab-14 variants for a coronavirus HR2 peptide

Binding partner: SARS-CoV-2 spike HR2 peptide, sequence PDVDLGDISGINAS.

The variants keep the light chain, the linker and the frameworks of Ab-14 (scFv order VH, the linker GGGGSGGGGSGGGGS, VL).
VH: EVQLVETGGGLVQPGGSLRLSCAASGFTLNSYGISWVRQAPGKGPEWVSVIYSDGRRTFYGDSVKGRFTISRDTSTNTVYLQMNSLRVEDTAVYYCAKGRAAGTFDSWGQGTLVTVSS
VL: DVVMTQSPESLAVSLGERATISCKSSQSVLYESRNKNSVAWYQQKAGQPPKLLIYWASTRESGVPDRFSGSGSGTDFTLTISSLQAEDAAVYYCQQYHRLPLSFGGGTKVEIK

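The starting antibody came from a phage panning campaign against this peptide. The variants were designed computationally from a first round of random CDR variants and then made and measured. Group labels follow the data file (Ctrl: baseline library sampled from a position-specific scoring matrix, with some repeated check sequences; Rand: our label for a block that the file lists under HC and that is probably the random mutants of the ten best first-round binders; GP: Gaussian process model; GPLM: also part of the Gaussian process libraries; HC: hill climbing; Gen: genetic algorithm; Gibbs: Gibbs sampling; a sequence that several methods proposed may carry one label only). In AlphaSeq, yeast of one mating type display the scFv and yeast of the other type display the target. Mating (16 h, 30 °C) was followed by selection of diploids and sequencing of their barcodes. A regression on co-assayed BCL2-family reference pairs converts the normalised counts of each replicate to an apparent Kd. Each pool was mated in six replicate cultures.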

Variants are written as CDR1, CDR2 and CDR3 of the heavy chain (limits as in the source). Parent: GFTLNSYGIS, VIYSDGRRTFYGDSVK, GRAAGTFDS. Variants here have at most six changes. The Kd shown is the geometric mean over detected replicates; a lower Kd is a better binder. "nd" marks a missing value. The strain was present, yet no cells mated with the target were sequenced in any replicate, which points to weak or no binding. Of ten entries with the parent sequence, four were seen in most replicates (averages 2.2 nM to 240 nM), three in one and three in none, so single entries are noisy. Background: pairings of all heavy chain designs with three empty control strains gave a value in 1% of cases (median 120 nM, 5th percentile 7.0 nM). Values in that range, when seen in few replicates, are hard to tell from nonspecific mating. A sequence measured in both rounds can read differently, since the two assays cover different ranges. The authors averaged sequences with at least three values out of six and counted those with two or fewer as poor binders.

HFTLNDYGIS | VIYSDGRRTAYIDSVK | GRAAGTFDS [GP_HC]: 11 nM (6 of 6 replicates).
GFFLNEYGIS | VIYSDGRRTFYGDSVK | GRNAGTFDS [GP_Gen]: 11 nM (5 of 6 replicates).
GFDLNSYGIS | VIYSDGRRTFYGDSVK | GREAGTFDW [GP_Gen]: 5.9 nM (6 of 6 replicates).
GFKLNSYGIS | VIYSDGRRTFYSDSVK | GQAAGTFDS [GP_HC]: 19 nM (5 of 6 replicates).
GFTLNEYGIS | VIYSDGRRTFYGDSVK | ARAAGTFDS [Ctrl]: 3.1 µM (2 of 6 replicates).
GFSLNSYGIS | VIYSDGRRTFYADSVK | GNTAGTFDT [GP_Gibbs]: 160 pM (6 of 6 replicates).
GFTLNSYGIS | VIYSDGRRTFYGDSVK | GKAACTFDS [Ctrl]: nd (0 of 6 replicates).
GFSLNEYGIS | VIYSDGRRTFYHDSVK | GRAAGTFDQ [GP_HC]: 1.4 nM (6 of 6 replicates).
GFTLNEYGIS | VIYSDGRRTFYTDSVK | GRFAGIFDS [Rand]: 15 nM (1 of 6 replicates).
GFSLNEYGIS | VIYSDGRRTFYADSVK | GNAAGTFDS [GPLM_Gen]: 8.0 nM (6 of 6 replicates).
GFPLNDYGIS | VIYSDGRRTFYGDSVK | GRTAGTFDA [GP_Gibbs]: 5.9 nM (6 of 6 replicates).
GFQLNEYGIS | VIYSDGRRTFYGDSVK | GRNAGTFDT [GP_Gen]: 1.6 nM (6 of 6 replicates).
GFTLNSYGIS | VIYSDGRRTFYIDSVK | GTLAGTFDS [GP_HC]: 13 nM (6 of 6 replicates).
GFSLNSYGIS | VIYSDGRRTFYGDSVK | GRQAGTFDN [GPLM_Gen]: 40 nM (5 of 6 replicates).
GFHLNQYGIS | VIYSDGRRTFYGDSVK | GRAAGTFDS [Ctrl]: 100 nM (4 of 6 replicates).
GFQLNEYGIS | VIYSDGRRTFYGDSVK | GRAAGTFTS [GP_HC]: nd (0 of 6 replicates).
GFTLNEYGIS | VIYSDGRRTFYGDSVK | GRAAGTFDM [GPLM_Gen]: nd (0 of 6 replicates).
GFELNDYGIS | VIYSDGRRTFYGDAVK | GRAAGTFDI [GP_HC]: 7.4 nM (6 of 6 replicates).
GFDLNLYGRS | VIYSDGRRTFYDDSVK | GQLAGTFDS [Rand]: 52 nM (1 of 6 replicates).
GFSLNSYGIS | VIYSDGRRTFYGDDVK | GQAAGTFDL [GPLM_Gen]: 10 nM (6 of 6 replicates).
GFTLNQYGIS | VIYSDGRRTFMGDSVK | GRAAGTFDS [Ctrl]: nd (0 of 6 replicates).
GFTLNSYGIS | VIYADGRRTFYGDSVK | GRNAGTHKS [Rand]: 1.3 µM (1 of 6 replicates).
GFDLNSYGIS | VIYSDGRRTFYADKVK | GQAAGTFDN [GP_Gibbs]: 3.6 nM (6 of 6 replicates).
GFWLNDYGIS | VIYSDGRRTFYIDSVK | GKAAGTFDS [GPLM_Gen]: 14 nM (5 of 6 replicates).
GFTLNSYGIS | VIYADGRRTFYGDSVK | GHAAGTFDM [GPLM_Gen]: 510 pM (6 of 6 replicates).
GFHLNSYGIS | VIYSDGHRTFYGDSVK | GRLAGAFDS [Ctrl]: nd (0 of 6 replicates).
GFSLNTYGIS | VIYSDGRRTAYGDSVK | GRAAGTFDS [GP_Gibbs]: 3.6 nM (6 of 6 replicates).
GFSLNSYGIS | VIYSDGRRTFYLDSVK | GKAAGTFDS [GP_Gibbs]: nd (0 of 6 replicates).
GFTLNDYGIS | VIYSDGRRTFYSDSVK | GRAAGFFDS [GP_HC]: 4.0 nM (6 of 6 replicates).
GFTLNEYGIS | VIYSDGRRTFYTDSVK | GVSAGTFDS [GP_HC]: 5.3 nM (6 of 6 replicates).
GFTLNEYGIS | VIYSDGQRTFYGDSVK | GRTAGTFDT [GP_Gen]: 510 pM (6 of 6 replicates).
GFTLNEYGIS | VIYSDGRRTFYGDSVK | GAAAGTFSS [Ctrl]: 12 nM (6 of 6 replicates).
GFDLNSYGIS | VIYSDGKRTFYGDSVK | GKAAGTFDS [GPLM_Gibbs]: 2.1 nM (6 of 6 replicates).
GFSLNSYGIS | VIYSDGRRTFYGDDVK | GMTAGTFDS [GP_Gen]: 5.3 nM (6 of 6 replicates).
GFVLNEYGIS | VIYSDGRRTFYGDSVK | GRAAGTFIS [GPLM_HC]: nd (0 of 6 replicates).
MFDLNSYGIS | VIYSDGRRTFYTDSVK | GNAAGTFDS [GP_Gibbs]: 18 nM (6 of 6 replicates).
GFTLNEYGIS | VIYADGRRTFYADSVK | GRAAGTFDV [Ctrl]: 110 pM (6 of 6 replicates).
GFELNSYGIS | VIYSDGRRTAYGDSVK | GRQAGTFDS [GPLM_Gibbs]: 3.3 nM (6 of 6 replicates).
GFNLNSYGIS | VIYSDGRRTFYGDSVK | GQTAGTFDT [GP_Gen]: 3.2 nM (6 of 6 replicates).
GFNLNSYGIS | VIYSDGRRTFYADDVK | GQEAGTFDS [GP_Gibbs]: 400 pM (6 of 6 replicates).
GFDLNSYGIS | VIYSDGKRTFYGDSVK | GHAAGTFDS [GP_Gibbs]: 2.2 nM (6 of 6 replicates).
GFTLNNYGIS | VIYSDGRRTFYIDSVK | GQEAGTFDS [GP_HC]: 36 nM (4 of 6 replicates).

The first 7 entries again:

CDR-H1	CDR-H2	CDR-H3	group	Kd (apparent)	detected
HFTLNDYGIS	VIYSDGRRTAYIDSVK	GRAAGTFDS	GP_HC	11 nM	6/6
GFFLNEYGIS	VIYSDGRRTFYGDSVK	GRNAGTFDS	GP_Gen	11 nM	5/6
GFDLNSYGIS	VIYSDGRRTFYGDSVK	GREAGTFDW	GP_Gen	5.9 nM	6/6
GFKLNSYGIS	VIYSDGRRTFYSDSVK	GQAAGTFDS	GP_HC	19 nM	5/6
GFTLNEYGIS	VIYSDGRRTFYGDSVK	ARAAGTFDS	Ctrl	3.1 µM	2/6
GFSLNSYGIS	VIYSDGRRTFYADSVK	GNTAGTFDT	GP_Gibbs	160 pM	6/6
GFTLNSYGIS	VIYSDGRRTFYGDSVK	GKAACTFDS	Ctrl	nd	0/6

Source: Li et al. 2023 (doi:10.1038/s41467-023-39022-2), MIT Lincoln Laboratory and A-Alpha Bio; data file from the FLAb repository.